Measured values as given in PubChem BioAssay (NCI).
Some of these compounds have results that are not shown, active ones among them.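 Protocol summary: plate cells (96-well), add compound at 5 concentrations, incubate 48 h, interpolate endpoints linearly. TGI marks complete inhibition of growth.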

What was measured:
Assay in all cases: inhibition of tumour cell growth, NCI panel, 48 h
OVCAR-3 ovarian = system: OVCAR-3 ovarian
SF-268 CNS = system: SF-268 CNS
UACC-62 melanoma = system: UACC-62 melanoma
BT-549 breast = system: BT-549 breast
UO-31 renal = system: UO-31 renal
EKVX NSCLC = system: EKVX NSCLC
MDA-N = system: MDA-N
K-562 leukemia = system: K-562 leukemia
MCF7 breast = system: MCF7 breast
RXF 393 renal = system: RXF 393 renal
LOX IMVI melanoma = system: LOX IMVI melanoma
SK-MEL-5 melanoma = system: SK-MEL-5 melanoma
CCRF-CEM leukemia = system: CCRF-CEM leukemia
RPMI-8226 leukemia = system: RPMI-8226 leukemia
NCI-H23 lung = system: NCI-H23 lung
COLO 205 colon = system: COLO 205 colon
SK-OV-3 ovarian = system: SK-OV-3 ovarian
SNB-75 CNS = system: SNB-75 CNS
SW-620 colon = system: SW-620 colon
OVCAR-5 ovarian = system: OVCAR-5 ovarian
HCT-116 colon = system: HCT-116 colon
HL-60(TB) leukemia = system: HL-60(TB) leukemia
SF-539 CNS = system: SF-539 CNS
MALME-3M melanoma = system: MALME-3M melanoma
PC-3 prostate = system: PC-3 prostate
SF-295 CNS = system: SF-295 CNS
NCI/ADR-RES ovarian = system: NCI/ADR-RES ovarian
HOP-62 NSCLC = system: HOP-62 NSCLC
MDA-MB-231 breast = system: MDA-MB-231 breast
SK-MEL-28 melanoma = system: SK-MEL-28 melanoma
CAKI-1 renal = system: CAKI-1 renal
DU-145 prostate = system: DU-145 prostate
MDA-MB-435 = system: MDA-MB-435
HT29 colon = system: HT29 colon
A549 NSCLC = system: A549 NSCLC
OVCAR-8 ovarian = system: OVCAR-8 ovarian
MOLT-4 leukemia = system: MOLT-4 leukemia
IGROV1 ovarian = system: IGROV1 ovarian
HCT-15 colon = system: HCT-15 colon
U251 CNS = system: U251 CNS
TK-10 renal = system: TK-10 renal
NCI-H226 lung = system: NCI-H226 lung
KM12 colon = system: KM12 colon
ACHN renal = system: ACHN renal
SR leukemia = system: SR leukemia
HCC-2998 colon = system: HCC-2998 colon
UACC-257 melanoma = system: UACC-257 melanoma
NCI-H522 lung = system: NCI-H522 lung
T-47D breast = system: T-47D breast
SN12C renal = system: SN12C renal
M14 melanoma = system: M14 melanoma
SNB-19 CNS = system: SNB-19 CNS
786-0 renal = system: 786-0 renal

Measured: TGI

CN1CCC=C(COC(=O)C(O)(c2ccccc2)C2CCCC2)C1 (stereo not drawn)
81.9 µM: UACC-257 melanoma
> 100 µM: all other assays above
